Measurements published in patent US8188108B2, “Pharmaceutical composition” (priority 2002, dated 2012).

Conditions: in vivo

CN1CC[C@]23c4c5ccc(O)c4O[C@H]2C(=O)CC[C@H]3[C@H]1C5 [Hydromorphone, hydromorphone]
effect of docusate on the pharmacokinetics: no significant effect
